Reference: patent US20220087946A1, “COMPOSITIONS, METHODS, SYSTEMS AND/OR KITS FOR PREVENTING AND/OR TREATING NEOPLASMS” (Research Cancer Institute of America, priority 2017, published 2022)

System: stage four bilateral infiltrating moderately differentiated ductal carcinoma
Assay: Case study Example 19: stage four breast ductal carcinoma

## TDM-1: Kadcyla (TDM-1), one injection received in Example 19
388 at start, successive measurements, before TDM-1 669, after TDM-1 972
  CEA: 972
In vivo
  toxic side effects: significant toxicity
Successive measurements, before TDM-1 695
  CA 15-3: 1062
Successive measurements, before TDM-1 763
  CA 27.29: 1313
